Measured values as given in patent publication US11077128B2, “Selective inhibitors of Alpha2-containing isoforms of Na,K-ATPase and use thereof for reduction of intraocular pressure” (Yeda Research and Development Co. Ltd., priority 2015, dated 2021).

Assays:
Type in all cases: biochemical
[1] = biological target: human Na,K-ATPase α2β2FXYD1 (Homo sapiens (Human), UniProt P50993)
[2] = biological target: human Na,K-ATPase α2β1FXYD1 (Homo sapiens, UniProt P50993)
[3] = tested on: human Na,K-ATPase α2β3FXYD1

SMILES | Selectivity Ki ratio α1β1/α2β2 [1] | Selectivity Ki ratio α1β1/α2β1 [2] | Selectivity Ki ratio α1β1/α2β3 [3]
CC1CN(CC2CC2)CCC(O[C@@H]2C(C)O[C@@H](OC3C(C)OC(O[C@H]4CC[C@@]5(C)C(CCC6C5CC[C@]5(C)[C@@H](C7=CC(=O)OC7)CC[C@]65O)C4)C[C@@H]3O)C[C@@H]2O)O1 (stereo in doubt) [DtxMcP, 4-((3S,5R,8R,9S,10S,13R,14S,17R)-3-(((2S,4S,5R,6R)-5-(((2S,4S,5S,6R)-5-((4-(cyclopropylmethyl)-2-methyl-1,4-oxazepan-7-yl)oxy)-4-hydroxy-6-methyltetrahydro-2H-pyran-2-yl)oxy)-4-hydroxy-6-methyltetrahydro-2H-pyran-2-yl)oxy)-14-hydroxy-10,13-dimethylhexadecahydro-1H-cyclopenta[a]phenanthren-17-yl)furan-2(5H)-one] | 4.6 | 5.9 | 6.7
CC1CN(C2CCC2)CCC(O[C@@H]2C(C)O[C@@H](OC3C(C)OC(O[C@H]4CC[C@@]5(C)C(CCC6C5CC[C@]5(C)[C@@H](C7=CC(=O)OC7)CC[C@]65O)C4)C[C@@H]3O)C[C@@H]2O)O1 (stereo in doubt) [DtxcB, 4-((3S,5R,8R,9S,10S,13R,14S,17R)-3-(((2S,4S,5R,6R)-5-(((2S,4S,5S,6R)-5-((4-cyclobutyl-2-methyl-1,4-oxazepan-7-yl)oxy)-4-hydroxy-6-methyltetrahydro-2H-pyran-2-yl)oxy)-4-hydroxy-6-methyltetrahydro-2H-pyran-2-yl)oxy)-14-hydroxy-10,13-dimethylhexadecahydro-1H-cyclopenta[a]phenanthren-17-yl)furan-2(5H)-one] | 5.8 | 5.6 | 7.1
